Reference: patent US11186566B2, “Modulator of cystic fibrosis transmembrane conductance regulator, pharmaceutical compositions, methods of treatment, and process for making the modulator” (Vertex Pharmaceuticals Incorporated, priority 2016, dated 2021)

By UniProt entry, the sequences of proteins in these tests, tags left out. Chains listed by the source or under a name are the forms on record and can include a tag or linker.
UniProt P13569, other isoform, or with tags, fused parts or gaps del F508-F508: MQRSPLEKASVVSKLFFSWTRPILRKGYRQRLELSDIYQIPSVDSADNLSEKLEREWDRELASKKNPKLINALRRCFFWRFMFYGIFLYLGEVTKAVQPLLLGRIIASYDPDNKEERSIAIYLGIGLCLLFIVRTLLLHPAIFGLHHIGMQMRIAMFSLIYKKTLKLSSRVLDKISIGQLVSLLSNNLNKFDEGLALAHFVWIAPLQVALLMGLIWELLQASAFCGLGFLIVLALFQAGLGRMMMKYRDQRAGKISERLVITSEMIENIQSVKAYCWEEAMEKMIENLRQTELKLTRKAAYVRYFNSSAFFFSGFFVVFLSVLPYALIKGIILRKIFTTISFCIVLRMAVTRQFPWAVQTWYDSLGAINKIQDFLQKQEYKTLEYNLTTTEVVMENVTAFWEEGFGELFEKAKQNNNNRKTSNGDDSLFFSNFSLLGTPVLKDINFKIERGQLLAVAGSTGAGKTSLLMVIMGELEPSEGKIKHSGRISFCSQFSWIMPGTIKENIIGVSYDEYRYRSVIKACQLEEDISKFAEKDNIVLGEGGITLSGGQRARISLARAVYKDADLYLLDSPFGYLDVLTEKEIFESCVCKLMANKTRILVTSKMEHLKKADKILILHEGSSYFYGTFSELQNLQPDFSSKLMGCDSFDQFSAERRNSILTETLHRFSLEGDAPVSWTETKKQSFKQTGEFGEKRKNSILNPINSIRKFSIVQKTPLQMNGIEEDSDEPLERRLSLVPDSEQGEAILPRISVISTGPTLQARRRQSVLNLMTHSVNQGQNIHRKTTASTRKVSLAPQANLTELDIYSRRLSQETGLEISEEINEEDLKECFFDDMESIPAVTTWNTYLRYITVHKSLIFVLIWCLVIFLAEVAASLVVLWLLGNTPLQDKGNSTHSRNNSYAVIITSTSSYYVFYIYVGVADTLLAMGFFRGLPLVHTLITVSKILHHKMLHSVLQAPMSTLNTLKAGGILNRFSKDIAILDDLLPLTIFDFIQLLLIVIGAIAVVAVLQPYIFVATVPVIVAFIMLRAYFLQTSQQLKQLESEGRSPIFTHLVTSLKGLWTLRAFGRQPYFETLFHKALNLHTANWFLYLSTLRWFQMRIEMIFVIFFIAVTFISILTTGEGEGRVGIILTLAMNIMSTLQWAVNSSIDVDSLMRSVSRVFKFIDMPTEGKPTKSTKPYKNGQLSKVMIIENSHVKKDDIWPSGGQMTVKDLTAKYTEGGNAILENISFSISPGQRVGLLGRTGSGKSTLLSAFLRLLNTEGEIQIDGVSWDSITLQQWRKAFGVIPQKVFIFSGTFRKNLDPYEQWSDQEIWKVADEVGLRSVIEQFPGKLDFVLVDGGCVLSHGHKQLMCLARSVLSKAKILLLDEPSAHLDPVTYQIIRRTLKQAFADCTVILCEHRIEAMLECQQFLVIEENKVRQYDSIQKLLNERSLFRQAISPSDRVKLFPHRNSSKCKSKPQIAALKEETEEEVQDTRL

Biological target: F508del-CFTR (Homo sapiens (Human), UniProt P13569, DEL508-508)
Assay: Membrane potential optical (fluorescent voltage sensing dye, FLIPR III) HTS assay for F508del-CFTR modulators
Assay type: cell-based
Settings: F508del NIH 3T3 cells, assay 5A-A1; read-out: CFTRdF508 EC50
Source text: Membrane Potential Optical Methods for Assaying Properties of F508del-CFTR Modulators
The assay utilizes fluorescent voltage sensing dyes to measure changes in membrane potential using a fluorescent plate reader (e.g., FLIPR III, Molecular Devices, Inc.) as a readout for increase in functional F508del in NIH 3T3 cells.
5A-A1. Identification of F508Del-CFTR Modulators
To identify modulators of F508del, a fluorescence based HTS assay format was developed. This HTS assay utilizes fluorescent voltage sensing dyes to measure changes in membrane potential on the FLIPR III as a measurement for increase in gating (conductance) of F508del NIH 3T3 cells.
(in mM) NaCl 160, KCl 4.5, CaCl2 2, MgCl2 1, HEPES 10, pH 7.4 with NaOH, Glucose 10.
Chloride salts in Bath Solution #1 (above) are substituted with gluconate salts.
NIH3T3 mouse fibroblasts stably expressing F508del are used for optical measurements of membrane potential. The cells are maintained at 37° C. in 5% CO2 and 90% humidity in Dulbecco's modified Eagle's medium supplemented with 2 mM glutamine, 10% fetal bovine serum, 1×NEAA, β-ME, 1×pen/strep, and 25 mM HEPES in 175 cm^2 culture flasks. For all optical assays, the cells were seeded at 12,000 cells/well in 384-well matrigel-coated plates and cultured for 18-24 hrs at 37° C. for the potentiator assay. […]

Q: With `C[C@@H]1CN(c2nc(-n3ccc(COC4(C)CC4)n3)ccc2C(=O)NS(=O)(=O)c2ccccc2)C(C)(C)C1` [Compound 29, N-(Benzenesulfonyl)-6-[3-[(1-methylcyclopropoxy)methyl]pyrazol-1-yl]-2-[(4S)-2,2,4-trimethylpyrrolidin-1-yl]pyridine-3-carboxamide] as the molecule, how does the EC50 read?
A: Its EC50 is 100 to 1000 nM.
